Data: PubChem BioAssay AID1347070 (National Center for Advancing Translational Sciences (NCATS), 2019)
Only a part is listed here, and it is no random draw. Some results for these compounds are left out of this collection, so the calls shown say nothing about other tests. Activity calls are given as the source filed them. The call rests on the fitted dose curve; in most records, active means well fitted activation curve with a large enough effect; inconclusive means small, poorly fitted or top-dose-only effect; inactive means flat fitted curve, though single readings scatter.

assay: qHTS of alpha-syn Inhibitors: NCGC Sytravon Library Screen; further: 0% is about no effect; details: S. cerevisiae alpha-synuclein toxicity rescue, BacTiter-Glo growth, 24 h; at 46.1 µM (top of the series)
From the text: The goal of this project is to identify new chemical probes capable of reversing the toxicity associated with the Parkinson disease-related protein, alpha-synuclein. Compounds will be selected on their ability to restore growth in yeast cells expressing toxic levels of alpha-synuclein. These compounds will provide a complementary approach to deciphering the tangled mechanisms of toxicity and protection that we have uncovered through genome-wide genetic screens and are beginning to uncover in a large-scale proteomics analysis with mass spectroscopy. To this end, a miniaturized assay was developed to be screened against the Molecular Libraries Small Molecule Repository (MLSMR) to discover alpha-synuclein inhibitors. […] The phenotype of interest will be that of an Activator and this screen is run against the NCGC Sytravon Library collection. NIH Chemical Genomics Center [NCGC] NIH Molecular Libraries Probe Centers Network [MLPCN] MLPCN Grant: NS060957 Assay Submitter (PI): Susan Lindquist, Whitehead Institute/MIT
Dispense 2.5 microL yeast galactose medium per 1536-well plate, pin compound, dispense 2.5 microL alpha-synuclein expressing yeast in galactose medium at OD600=0.02 (pregrown in raffinose medium to mid-log phase) per well, incubate for 24 hr at 30 deg C, and cell growth will be measured using 5 microL of Bactiter/Glo reagent to entire plate and read using Luminescence Protocol in ViewLux.

**Q.** With O=C(NCC1(N2CCCCC2)CCCCC1)c1cccc(Br)c1 as the molecule, how does the growth rescue (activation) read?
**A.** inactive: 9.06%

**Q.** With Cc1cc(C(=O)NCC2(N3CCCCC3)CCCCC2)ccc1[N+](=O)[O-] as the molecule, how does the growth rescue (activation) read?
**A.** inactive: -1.89%

**Q.** Which growth rescue (activation) does the source give for CCOc1cccc(C(=O)NCC2(N(C)C)CCCCC2)c1 here?
**A.** inactive: 3.9%

**Q.** Which growth rescue (activation) does the source give for CN(C)C1(CNC(=O)c2ccccc2[N+](=O)[O-])CCCCC1 here?
**A.** inactive: -2.13%

**Q.** With CCCCOc1ccccc1C(=O)NCC1(N(C)C)CCCCC1 as the molecule, how does the growth rescue (activation) read?
**A.** inactive: -29.3%

**Q.** For CN(C)C1(CNC(=O)c2cccc(Cl)c2)CCCCC1, which growth rescue (activation) is on record?
**A.** inactive: 3.74%

**Q.** Which growth rescue (activation) does the source give for CCN(CC)CC(C)C(C)OC(=O)C(O)(c1ccccc1)c1ccccc1 (configuration not stated) here?
**A.** inactive: -1.13%

**Q.** With CN(C)C1(CNC(=O)c2ccccc2F)CCCCC1 as the molecule, how does the growth rescue (activation) read?
**A.** inactive: -10.7%

**Q.** For Cc1ccc(C(=O)NCC2(N3CCCCC3)CCCCC2)cc1, which growth rescue (activation) is on record?
**A.** inactive: -5.65%

**Q.** Which growth rescue (activation) does the source give for COc1cc(C(=O)NCC2(N(C)C)CCCCC2)cc(OC)c1OC here?
**A.** inactive: 2.4%

**Q.** Which growth rescue (activation) does the source give for Cc1cccc(C(=O)NCC2(N(C)C)CCCCC2)c1 here?
**A.** inactive: 1.03%

**Q.** Which growth rescue (activation) does the source give for C=C(C)C#CC(O)(C(=O)OC1CCN(C)CC1)c1ccccc1 (configuration not stated) here?
**A.** inactive: -5.35%

**Q.** Which growth rescue (activation) does the source give for CC(C)Oc1ccc(C(=O)NCC2(N(C)C)CCCCC2)cc1 here?
**A.** inactive: 0.371%

**Q.** For COc1cccc(C(=O)NCC2(N3CCOCC3)CCCCC2)c1, which growth rescue (activation) is on record?
**A.** inactive: -9.71%

**Q.** For CC(C)COc1ccc(C(=O)NCC2(N(C)C)CCCCC2)cc1, which growth rescue (activation) is on record?
**A.** inactive: -51.1%

**Q.** Which growth rescue (activation) does the source give for COc1ccc(C(=O)NCC2(N(C)C)CCCCC2)cc1Cl here?
**A.** inactive: 0.446%

**Q.** Which growth rescue (activation) does the source give for CN(C)C1(CNC(=O)c2ccc(Br)cc2)CCCCC1 here?
**A.** inactive: -6.38%
